Measurements: paper PMC10041525, “New Dual Inhibitors of Bacterial Topoisomerases with Broad-Spectrum Antibacterial Activity and In Vivo Efficacy against Vancomycin-Intermediate Staphylococcus aureus” (Journal of Medicinal Chemistry, 2023)

Tested on: Chinese hamster ovary K1 cells
Assay: in vitro micronucleus test
Conditions: without S9, 1 µM

CO[C@@]12[C@H](COC(N)=O)C3=C(C(=O)C(C)=C(N)C3=O)N1C[C@@H]1N[C@@H]12 [Mitomycin C]
% Cytostasis: 41.6%
